Molecular target: Syk (Homo sapiens (Human), UniProt P43405)
Assay: Syk enzyme inhibition (Z-LYTE FRET)
Format: biochemical
Experimental: The enzyme inhibitory activities of compounds disclosed herein were determined by FRET using synthetic peptides labelled with both donor and acceptor fluorophores (Z-LYTE, Invitrogen Ltd., Paisley, UK).
Development reagent (protease, 5 μL) was added for 1 hr prior to detection in a fluorescence microplate reader (Varioskan® Flash, ThermoFisher Scientific).
In all cases, the site-specific protease cleaves non-phosphorylated peptide only and eliminates the FRET signal. Phosphorylation levels of each reaction were calculated using the ratio of coumarin emission (donor) over fluorescein emission (acceptor), for which low ratios indicate high phosphorylation and high ratios indicate low phosphorylation levels.

`COCC(=O)Nc1cc(Oc2ccc(NC(=O)Nc3cc(C(C)(C)C)nn3-c3ccc(C)cc3)c3ccccc23)ccn1` [Reference Compound, N-(4-(4-(3-(3-tert-butyl-1-p-tolyl-1H-pyrazol-5-yl)ureido)naphthalen-1-yloxy)pyridin-2-yl)-2-methoxyacetamide] showed an IC50 of 0.042 µM.
